{"sequences": {"note": "Protein sequences, listed by entry. Tags and fused reporters are not part of them.", "UniProt P33535, whole entry": "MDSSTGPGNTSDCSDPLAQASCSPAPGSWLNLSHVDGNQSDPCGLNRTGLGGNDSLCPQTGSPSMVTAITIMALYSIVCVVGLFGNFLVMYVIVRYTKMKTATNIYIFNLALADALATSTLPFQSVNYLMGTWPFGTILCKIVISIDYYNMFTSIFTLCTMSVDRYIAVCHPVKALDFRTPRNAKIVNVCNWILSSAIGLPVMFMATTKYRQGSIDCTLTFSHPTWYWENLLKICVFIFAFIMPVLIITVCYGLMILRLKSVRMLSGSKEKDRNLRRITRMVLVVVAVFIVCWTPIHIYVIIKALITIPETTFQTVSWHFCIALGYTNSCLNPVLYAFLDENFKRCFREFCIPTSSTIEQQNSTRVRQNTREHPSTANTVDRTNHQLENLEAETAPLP"}, "source": "ChEMBL document CHEMBL1151866", "about": "“Design and synthesis of novel delta opioid receptor agonists and their pharmacologies” (Bioorg Med Chem Lett, 2009)", "target": "Mu-type opioid receptor (Rattus norvegicus, UniProt P33535)", "assay": "Displacement of [3H]DAMGO from mu opioid receptor in rat cerebellum membrane", "format": "cell membranes", "data": [{"compound": "Oc1ccc2c3c1O[C@H]1c4[nH]c5ccccc5c4C[C@@]4(O)[C@@H](C2)N(CC2CC2)CC[C@]314", "note": "[NALTRINDOLE]", "values": [{"measurement": "Ki", "result": 23.6, "unit": "nM"}]}]}
